Experimental findings from patent US9284528B2, “Use of stem cell conditioned medium to inhibit oxidation for anti-aging skin” (GROWGENE BIOTECH INC., priority 2014, dated 2016) are described below.

This assay is described as follows: Hydrogen peroxide (H2O2) scavenging assay. The conditions noted are these: 200 mg/L L-ascorbic acid; 10-minute reaction; A230; mean±SEM, triplicate.

For the compound `O=C1O[C@H]([C@@H](O)CO)C(O)=C1O` [L-ascorbic acid], the “H2O2 scavenged (scavenging effects)” value is on record as 88.18%±1.06%.
